# Results as given in US6844190B2, “St-B17 serotonin receptor” (The United States of America as represented by the …, priority 1992, dated 2005).
# By UniProt entry, the sequences of proteins in these tests, tags left out. Chains listed by the source or under a name are the forms on record and can include a tag or linker.
# UniProt P31388, with tags, fused parts or gaps L57V: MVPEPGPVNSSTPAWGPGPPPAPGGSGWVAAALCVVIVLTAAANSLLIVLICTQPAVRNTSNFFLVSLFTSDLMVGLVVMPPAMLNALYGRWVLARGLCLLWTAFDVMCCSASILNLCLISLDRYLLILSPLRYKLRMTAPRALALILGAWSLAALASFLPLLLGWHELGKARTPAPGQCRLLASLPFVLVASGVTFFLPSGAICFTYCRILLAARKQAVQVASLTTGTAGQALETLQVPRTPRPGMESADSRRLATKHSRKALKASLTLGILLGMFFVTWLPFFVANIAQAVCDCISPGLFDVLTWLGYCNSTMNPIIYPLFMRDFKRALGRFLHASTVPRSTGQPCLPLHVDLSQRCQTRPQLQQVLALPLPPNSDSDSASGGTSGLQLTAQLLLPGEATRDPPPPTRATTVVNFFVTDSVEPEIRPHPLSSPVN
# Legend:
# [1] = target: T1, St-B17 serotonin receptor (Rattus norvegicus, UniProt P31388); experiment: [125I]-LSD competition binding, Cos-7 cell membranes expressing St-B17; conditions: 0.5 nM [125I]-LSD, Cos-7 membranes, n=3, Cheng-Prussoff from IC50; read-out: Ki vs. [125I]-LSD, Mean ± SEM
# T1 construct: expressed in transfected cells; host or cells: Cos-7 cells, transient transfection, crude membranes
# Description: (§1) This experiment was performed on Cos-7 cell membranes expressing the St-B17 serotonin receptor.
# [2] = target: T2, St-B17 serotonin receptor (Rattus norvegicus, UniProt P31388, L57V); experiment: as above; set-up: expressed in transfected cells; host or cells: Cos-7 cells, transient transfection, crude membranes; conditions: qualitative statement
# Description: as §1
# [3] = target: T2, St-B17 serotonin receptor; experiment: [3H]-5-HT competition binding, Cos-7 cell membranes expressing St-B17; set-up: expressed in transfected cells; host or cells: Cos-7 cells, transient transfection, crude membranes; conditions: 5 nM [3H]-5-HT, Cos-7 membranes, n=3, Cheng-Prussoff from IC50; read-out: Ki vs. [3H]-5-HT, Mean ± SEM
# [4] = target: T3, St-B17 stably expressed in HEK-293 cells (Rattus norvegicus, UniProt P31388, L57V); experiment: cAMP accumulation in intact HEK-293 cells stably expressing St-B17; assay type: cell-based; conditions: 10 μM final concentration, FIG. 5
# T3 construct: expressed in transfected cells
# Description: Human Embryonic Kidney cells (HEK 293 available from the ATCC) were stably co-transfected in 150mm dishes by the CaPO4 technique with 30 μg of pSRα-B17 and 3 μg of pMam-neo (INVITROGEN). These HEK 293 cells were then subjected to selection with 600 μg/ml genetecin (G418) (GIBCO). The resistant colonies were collected and screened for receptor expression by [^125I]-LSD binding as described in Example 6.
# Intracellular cAMP levels were determined after a 5 minute incubation of intact cells with various test compounds at 37° C. in the presence of the cAMP phosphodiesterase inhibitor RO-20-1724, using a modification of a previously described cAMP assay (Monsma, F. J., Jr., Barton, A. C., and Sibley, D. R. (1990) J. Neurochemistry 54, 1200-1207) wherein the adrenal cAMP binding protein was replaced with 0.8 mg/ml protein kinase A in water.
structure (smiles),measurement,setting,value
CSc1ccc2c(c1)C(N1CCN(C)CC1)Cc1ccccc1S2 (stereo not drawn) [Methiothepin],Ki,[1],1.84 ± 0.23 nM
same,affinity for St-B17 (in words),[2],relatively high affinity
same,Ki,[3],0.39 ± 0.063 nM
same,effect on cAMP levels on their own (in words),[4],no significant effect on cAMP levels
same,effect on the cAMP response elicited by 5-HT (in words),[4],substantially inhibit the response elicited by 5-HT
same,functional classification at St-B17 receptor,[4],antagonists
